This is a sample that favours compounds with a hit; in the whole collection about 0.42% have one here.
Vif-A3G inh – qHTS for Inhibitors of Vif-A3G Interactions: qHTS | DNA dC->dU-editing enzyme APOBEC-3G (Homo sapiens), Q9HC16 | HeLa A3G-eYFP + Vif (tagged APOBEC3G with the HIV-1 protein that degrades it), YFP fluorescence, overnight | Potency, µM (top dose mostly 46.1 µM), for inactives: top-dose activity, negative = active, hits mostly inhibitors | 0.076% of 410,000 active | AID 602310, 2012; note: % is set by controls: 0 for no effect and ±100 for the full control effect; nearly all actives have a fitted effect of over 60% in size
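HeLa cells stably expressing Vif and C-terminally eYFP-tagged A3G, seeded overnight at 37 deg C, then exposed to compound by pintool overnight at 37 deg C. Rise in yellow fluorescence (Ex 488/Em 500-530, Acumen) marks blocked Vif-driven A3G degradation.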
Epigenetic derep – Quantitative High-Throughput Screen for Regulators of Epigenetic Control | Potency, µM (series often up to 53.9 µM), without a hit: top-dose GFP activation, most hits filed as activators | 0.2% of 280,000 active | AID 1865, 2009 | murine LDR cells, GFP reporter derepression, 30 h; note: % of control where 0% means no effect; nearly all actives have a fitted effect of over 60% in size
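Readout is the number of GFP-expressing murine LDR cells, counted by cytometry following washing. Cells were treated with compound for 30 h at 37 C; the stably integrated CMV-GFP locus is normally silent.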
Rango release inh – qHTS Assay for Inhibitors of RanGTP induced Rango (Ran-regulated importin-beta cargo) - Importin beta complex dissociation; Biochemical FRET Rango-importin beta, RanGTP-induced dissociation; Potency, µM (top dose mostly 46.1 µM), inactives show at the highest dose activity change, negative = inhibition; 0.071% of 340,000 active; calls by dose curve; note: % of control where 0% means no effect; nearly all actives have a fitted effect of over 45% in size
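Compounds preincubate 5 min with complex of recombinant Rango and importin beta in PBS with 1 mM DTT. Ran (0.6 uM) loaded with 2 mM GTP plus 0.2 uM RCC1 starts dissociation; FRET is recorded 45 min later.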
Rango-impB inh – qHTS Assay for Inhibitors of Rango (Ran-regulated importin-beta cargo) - Importin beta complex formation | Importin subunit beta-1 (Homo sapiens), Q14974 | Potency, µM (doses to about 92.2 µM), without a hit: top-dose inhibition of complex formation | 0.031% of 340,000 active | Rango CFP/YFP FRET sensor + importin beta, 45 min | AID 540263, 2011; calls by dose curve;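 note: 0% = DMSO wells and 100% = buffer wells lacking importin beta; nearly all actives have a fitted effect of over 15% in size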
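Inhibition scored from the CFP 486 nm/YFP 530 nm FRET ratio 45 min after adding 0.125 microM importin beta to 50 nM Rango biosensor preincubated 5 min with compound (room temperature, PBS with DTT, Tween-20, BSA). No-importin wells as positive control.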
Vif-APOBEC3F blk – qHTS for Inhibitors of Vif-A3F Interactions: qHTS; HeLa A3F-eYFP + Vif (tagged APOBEC3F with the HIV-1 protein that degrades it), YFP fluorescence increase; Potency, µM (top dose mostly 46.1 µM), without a hit: at the highest dose activity, negative = active; 0.2% of 390,000 active; AID 602313, 2012; note: % of control where 0% means no effect; nearly all actives have a fitted effect of over 65% in size
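HeLa cells stably expressing Vif plus C-terminally eYFP-tagged A3F were seeded, incubated overnight at 37 deg C, dosed with compound, incubated overnight again at 37 deg C. Yellow fluorescence (Ex 488/Em 500-530) reported blocked Vif-mediated A3F-eYFP degradation.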
Starred values were filed as active, the others as inactive; ? = inconclusive; / = no result given; ! = repeats disagree. Unless noted, calls come from the whole dose curve; as a rule, active = well fitted curve in the direction sought with a large enough effect; inconclusive = small, poorly fitted or top-dose-only effect, or another doubt; inactive = no such curve, though single readings can be large; an effect the other way counts as inactive or inconclusive. Potency is the fitted concentration of half-maximal effect.

Sequences of proteins named here, by UniProt entry; tags and fusion partners are left off.
Importin subunit beta-1 (Homo sapiens), Q14974, UniProt Q14974, whole entry, looked up: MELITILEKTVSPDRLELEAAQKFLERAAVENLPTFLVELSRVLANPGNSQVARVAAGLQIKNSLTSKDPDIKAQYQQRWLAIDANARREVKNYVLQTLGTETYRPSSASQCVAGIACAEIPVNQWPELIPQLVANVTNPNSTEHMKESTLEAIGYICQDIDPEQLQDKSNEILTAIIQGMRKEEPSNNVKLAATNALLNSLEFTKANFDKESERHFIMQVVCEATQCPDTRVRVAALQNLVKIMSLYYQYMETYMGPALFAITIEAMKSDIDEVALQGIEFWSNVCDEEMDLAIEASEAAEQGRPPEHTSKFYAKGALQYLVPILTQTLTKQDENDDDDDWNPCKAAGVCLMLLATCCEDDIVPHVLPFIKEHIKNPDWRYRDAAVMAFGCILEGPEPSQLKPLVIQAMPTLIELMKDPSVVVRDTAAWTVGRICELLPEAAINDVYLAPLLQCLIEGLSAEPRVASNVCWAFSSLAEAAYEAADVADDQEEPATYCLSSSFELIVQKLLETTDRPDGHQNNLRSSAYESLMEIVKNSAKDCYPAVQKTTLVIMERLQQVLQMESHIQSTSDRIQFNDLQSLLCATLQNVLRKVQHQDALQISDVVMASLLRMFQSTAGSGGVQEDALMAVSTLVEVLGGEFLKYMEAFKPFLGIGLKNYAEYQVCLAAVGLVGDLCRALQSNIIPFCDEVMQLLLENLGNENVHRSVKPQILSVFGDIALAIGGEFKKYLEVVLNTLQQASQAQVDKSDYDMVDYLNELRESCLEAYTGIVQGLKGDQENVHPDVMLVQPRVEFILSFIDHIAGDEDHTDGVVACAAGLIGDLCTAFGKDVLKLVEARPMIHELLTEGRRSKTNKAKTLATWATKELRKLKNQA

SMILES	Vif-A3G inh	Epigenetic derep	Rango release inh	Rango-impB inh	Vif-APOBEC3F blk
O=C1CSC(=S)N1Cc1cccnc1	?	2%	-16%	?	11µM*
Cc1cc(N2CCCC2)ccc1/C=C1/C(=O)N(C)C(=S)N1C	?	?	-4%	4%	11µM*
CN1C(=O)/C(=C/C=C2/CCCN2C)N(C)C1=S	1%	0%	-13%	-5%	-1%
COc1cc(/C=C2\CC/C(=C\c3cc(OC)c(O)c(OC)c3)C2=O)cc(OC)c1O	-11%	?	?	?	-19%
COc1cc(/C=C2/CCC/C(=C\c3cc(O)c(OC)c(Cl)c3)C2=O)cc(Cl)c1O	?	?	?	?	6.3µM*
O=S(=O)(c1ccc2nc(Nc3ccc(Br)cc3F)ccc2c1)N1CCCCC1	3%	1%	/	/	-3%
CC[n+]1ccnc2ccccc21	-22%	/	/	/	/
CC(C)Oc1ccc(C(=O)OC(C)C(=O)NC2CCCCC2C)cc1 (stereo not given)	2%	/	-3%	26µM*	-7%
CCN(CC)C(=O)Cn1c(=O)n(-c2ccc(Cl)cc2)c(=O)c2c3c(sc21)CCC3	-1%	-2%	/	/	0%
CCN(CC)C(=O)Cn1c(=O)n(-c2ccccc2)c(=O)c2c3c(sc21)CCC3	0%	-1%	-8%	-3%	11µM*!

Reprinted from the part before: 3 entries, followed by the next part.
SMILES	Vif-A3G inh	Epigenetic derep	Rango release inh	Rango-impB inh	Vif-APOBEC3F blk
CC(C)Oc1ccc(C(=O)OC(C)C(=O)NC2CCCCC2C)cc1 (stereo not given)	2%	/	-3%	26µM*	-7%
CCN(CC)C(=O)Cn1c(=O)n(-c2ccc(Cl)cc2)c(=O)c2c3c(sc21)CCC3	-1%	-2%	/	/	0%
CCN(CC)C(=O)Cn1c(=O)n(-c2ccccc2)c(=O)c2c3c(sc21)CCC3	0%	-1%	-8%	-3%	11µM*!
CCN(CC)CCN(C)c1ccc(/C=C/c2ccnc3ccccc23)cc1	-13%	/	/	/	/
COc1ccc(OC)c2sc(NC(=O)CCS(=O)(=O)c3ccccc3)nc12	11µM*	/	12%	?	3%
CN(C)c1ccc(/C=N/NC(=O)c2ccccc2)cc1	?	2%	-15%	?	-6%
CN(C)c1ccc(/C=N/NC(=O)c2ccccc2Cl)cc1	10µM*	-1%	0%	1%	2%
O=C(O[C@H]1[C@H](Cc2ccccc2)NS(=O)(=O)[C@H]2C[C@@H]3C=C[C@]12O3)c1ccccc1Br	-3%	/	/	/	/
COc1ccc(/C=c2\s/c(=C/C(=O)c3ccc(C)cc3)[nH]c2=O)c(OC)c1	?	7%	?	?	25µM*
CC(=O)Nc1cc(O)c2nonc2c1O	-26%	/	/	/	/
CCCCN(CCCC)S(=O)(=O)c1ccc(C(=O)Nc2sc3c(c2C(N)=O)CCN(CC)C3)cc1	?	?	/	/	28µM*
COc1ccc(S(=O)(=O)Oc2ccc3ccccc3c2)cc1	?	2%	0%	-3%	-17%
COC1=C(OC)C(=O)C(Sc2ccc3ccccc3c2)=CC1=O	?	/	-6%	0%	25µM*
CCCN1C(=O)c2ccccc2NC1c1ccc(OC)c(COc2cccc(C)c2C)c1 (stereo not given)	4%	/	/	/	/
Cc1ccc(N2C(=O)CS/C2=C(\C(Cl)=C(Cl)Cl)[N+](=O)[O-])cc1	?	?	5%	0%	25µM*
Cc1ccc(N2C(=O)CSCC2=O)cc1	-2%	0%	0%	-3%	1%
CCOc1ccccc1-c1noc(CSc2nnc(-c3ccncc3)n2-c2ccc(F)cc2)n1	0%	-2%	/	/	3%
Oc1sc(C=Nc2ccc(F)cc2)c2ccccc12	?	?	?	?	2.8µM*
Oc1c(C=Nc2ccccc2)sc2ccccc12	?	0%	?	?	-12%
Oc1sc(C=Nc2ccccc2)c2ccccc12	11µM*	?	?	?	25µM*
Oc1c(C=Nc2cccnc2)sc2ccccc12	-1%	0%	?	?	7%
CCCn1c(=O)c2sccc2n2c(CCCC(=O)Nc3cccc(CC)c3)nnc12	-1%	10%	/	/	-12%
CCOc1ccccc1C1CC(c2cccs2)=NN1S(C)(=O)=O (stereo not given)	-27%	12%	-25%	?	32µM*
CS(=O)(=O)N1N=C(c2cccs2)CC1c1ccccc1O (stereo not given)	-12%	0%	0%	1%	?
COc1cc(OC)c(C2Nc3cccc4cccc(c34)N2)c(OC)c1	-1%	/	-9%	4%	11µM*
COc1ccc2c(c1)c1nc3ccccc3nc1n2Cc1ccc(OC(C)C)c(OC)c1	-27%	?	2%	?	22µM*
COc1ccc(Cn2c(N)c(C#N)c3nc4ccccc4nc32)cc1OC	?	6%	12µM*	?	3%
COc1ccc(CCn2c(N)c(C#N)c3nc4ccccc4nc32)cc1OC	-12%	3%	?	?	7%
COc1ccc2c(c1)c1nc3ccccc3nc1n2CC(=O)OC(C)C	-18%	?	-11%	7%	25µM*
O=C(O)Cn1c2ccccc2c2nc3ccccc3nc21	?	/	/	/	8.9µM*
Cc1ccc(C2C(=O)N(C3CCCCCC3)CC(=O)N2CCC2=CCCCC2)cc1 (stereo not given)	-4%	4%	/	/	0%
c1cncc(-c2nc(NCc3cccs3)c3ccccc3n2)c1	-8%	-5%	8%	4%	18µM*
Fc1ccccc1CNc1nc(-c2cccnc2)nc2ccccc12	2%	/	-7%	?	-5%

By substructure: those above containing an aryl thioether with sulfur outside any ring
SMILES	Vif-A3G inh	Epigenetic derep	Rango release inh	Rango-impB inh	Vif-APOBEC3F blk
COC1=C(OC)C(=O)C(Sc2ccc3ccccc3c2)=CC1=O	?	/	-6%	0%	25µM*
CCOc1ccccc1-c1noc(CSc2nnc(-c3ccncc3)n2-c2ccc(F)cc2)n1	0%	-2%	/	/	3%

Other entries follow.
SMILES	Vif-A3G inh	Epigenetic derep	Rango release inh	Rango-impB inh	Vif-APOBEC3F blk
C(=C\c1nccc2c1[nH]c1ccccc12)/c1ccccc1	?	0%	16µM*	?	?
O=c1c2ccccc2sc2ccc(NCCCN3CCOCC3)cc12	?	/	?	?	22µM*
S=C(Nc1cccc2ccccc12)NN1CCOCC1	2%	0%	3%	2%	-5%
S=C(Nc1cccc2ccccc12)NN1CCCCCC1	0%	/	-7%	8%	22µM*
